Assay results as given in ChEMBL document CHEMBL1126435, “DuP 747: a new, potent, kappa opioid analgesic. Synthesis and pharmacology1” (Bioorg Med Chem Lett, 1992).

What was measured:
Mus musculus [1] = assay: Compound was evaluated for analgesic activity against chemically induced pain in the mouse phenylquinone writhing (PQW) test following subcutaneous administration
Canis familiaris = species: Canis familiaris; assay: Compound was evaluated for analgesic activity against electrically stimulated tooth pulp pain in dogs.
Rattus norvegicus [2] = species: Rattus norvegicus; assay: Compound was evaluated for analgesic activity against heat induced pain in rat (uninflamed paw)
Rattus norvegicus [3] = species: Rattus norvegicus; assay: Compound was evaluated for analgesic activity against Pressure induced pain in rats (inflamed paw)
Rattus norvegicus [4] = species: Rattus norvegicus; assay: Compound was evaluated for analgesic activity against electrically stimulated tooth pulp pain in rats.
Mus musculus [5] = assay: Compound was evaluated for analgesic activity against chemically induced pain in the mouse phenylquinone writhing (PQW) test following peroral administration

SMILES | ED50 (Mus musculus [1]) [mg/kg] | ED50 (Canis familiaris) [mg/kg] | ED50 (Rattus norvegicus [2]) [mg/kg] | ED50 (Rattus norvegicus [3]) [mg/kg] | ED50 (Rattus norvegicus [4]) [mg/kg] | ED50 (Mus musculus [5]) [mg/kg]
COc1cccc2c1CC[C@H](N1CCCC1)[C@H]2N(C)C(=O)Cc1ccc(Cl)c(Cl)c1.CS(=O)(=O)O | 0.46 | 1.3 | 31 | 26 | 3.2 | 6.2
CN(C(=O)Cc1ccc(Cl)c(Cl)c1)[C@H]1c2ccccc2CC[C@@H]1N1CCCC1.Cl | 2.7 | – | – | – | – | 13
CN(C(=O)Cc1ccc(Cl)c(Cl)c1)C1CCCCC1N1CCCC1 (stereo not given) | 1.2 | – | – | – | – | 13
